Test results as given in PMC6829864, “Determination of Ligand Profiles for Pseudomonas aeruginosa Solute Binding Proteins” (International Journal of Molecular Sciences, 2019).
Like-named read-outs stand apart in the source and are kept apart here.

Protein sequences, listed by entry. Tags and fused reporters are not part of them. Residues count along the entry.
UniProt Q9I2F8, 30-319: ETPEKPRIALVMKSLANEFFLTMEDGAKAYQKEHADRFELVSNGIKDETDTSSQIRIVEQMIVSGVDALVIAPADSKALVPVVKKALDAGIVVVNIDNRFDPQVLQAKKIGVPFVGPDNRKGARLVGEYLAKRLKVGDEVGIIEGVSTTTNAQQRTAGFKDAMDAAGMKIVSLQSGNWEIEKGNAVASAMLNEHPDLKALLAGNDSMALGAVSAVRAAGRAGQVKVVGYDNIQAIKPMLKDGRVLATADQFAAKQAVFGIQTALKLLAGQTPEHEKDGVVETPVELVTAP

Key:
[1] = molecular target: T1, PA1946 (rspB) (Pseudomonas aeruginosa, UniProt Q9I2F8); experiment: biochemical
[2] = molecular target: T1, PA1946 (rspB); experiment: DSF thermal shift ligand screening, PA1946; assay type: binding, Pseudomonas aeruginosa PAO1; conditions: Tm change vs ligand-free protein
[3] = molecular target: T1, PA1946 (rspB); conditions: 25 °C

SMILES | Kd [1] | Tm DSF (Tm increase) [2] | Tm DSF (Tm increase) ([2]; listed as D-ribose) | Tm DSF (Tm increase) ([2]; listed as D-allose) | KD by ITC [3] | KD by ITC ([3]; listed as D-arabinose) | Tm DSF (Tm increase) ([2]; listed as D-arabinose)
O[C@@H]1[C@H](O)[C@H](O)CO[C@H]1O [D-Ribose] | 2100 ± 100 nM | 21.7 °C | about 22 °C |  |  |  | 
OC[C@H]1O[C@@H](O)[C@H](O)[C@H](O)[C@@H]1O [D-Allose] |  | 22.0 °C |  | about 22 °C |  |  | 
OC1OC[C@@H](O)[C@@H](O)[C@@H]1O (stereo partly drawn) [D-Arabinose] |  | 7.5 °C |  |  | No binding | no binding was observed | approximately 8 °C
